Article PMC10534724 (2023)

How the values were obtained:
[1] = molecular target: T1, hMATE1 (Homo sapiens, UniProt Q96FL8); assay: Inhibition of hMATE1-mediated substrate uptake in transfected HEK293 cells (pH 8.0); format: in vitro ADME; details: for unbound Cmax/IC50, hMATE1: FDA criterion > 0.1
T1 sequence (Q96FL8 1-570): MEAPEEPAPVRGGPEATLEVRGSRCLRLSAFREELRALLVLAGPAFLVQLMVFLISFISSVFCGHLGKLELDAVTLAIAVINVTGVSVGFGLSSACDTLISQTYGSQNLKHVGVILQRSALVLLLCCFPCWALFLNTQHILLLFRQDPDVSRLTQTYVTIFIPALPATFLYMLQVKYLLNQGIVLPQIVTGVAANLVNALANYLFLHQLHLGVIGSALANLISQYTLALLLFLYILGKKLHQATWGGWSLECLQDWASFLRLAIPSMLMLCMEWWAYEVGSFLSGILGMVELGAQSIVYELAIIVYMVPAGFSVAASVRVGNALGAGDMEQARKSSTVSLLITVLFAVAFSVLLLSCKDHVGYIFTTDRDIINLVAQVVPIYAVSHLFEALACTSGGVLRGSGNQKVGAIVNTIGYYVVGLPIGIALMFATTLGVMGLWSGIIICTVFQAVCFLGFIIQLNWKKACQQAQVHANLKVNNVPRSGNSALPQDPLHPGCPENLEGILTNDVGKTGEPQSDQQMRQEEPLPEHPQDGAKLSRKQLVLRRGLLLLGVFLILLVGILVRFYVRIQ

[2] = molecular target: T2, hOCT1 (Homo sapiens, UniProt O15245); assay: Inhibition of hOCT1-mediated substrate uptake in transfected HEK293 cells; format: in vitro ADME; details: FDA criterion > 0.1
T2 sequence (O15245 1-554): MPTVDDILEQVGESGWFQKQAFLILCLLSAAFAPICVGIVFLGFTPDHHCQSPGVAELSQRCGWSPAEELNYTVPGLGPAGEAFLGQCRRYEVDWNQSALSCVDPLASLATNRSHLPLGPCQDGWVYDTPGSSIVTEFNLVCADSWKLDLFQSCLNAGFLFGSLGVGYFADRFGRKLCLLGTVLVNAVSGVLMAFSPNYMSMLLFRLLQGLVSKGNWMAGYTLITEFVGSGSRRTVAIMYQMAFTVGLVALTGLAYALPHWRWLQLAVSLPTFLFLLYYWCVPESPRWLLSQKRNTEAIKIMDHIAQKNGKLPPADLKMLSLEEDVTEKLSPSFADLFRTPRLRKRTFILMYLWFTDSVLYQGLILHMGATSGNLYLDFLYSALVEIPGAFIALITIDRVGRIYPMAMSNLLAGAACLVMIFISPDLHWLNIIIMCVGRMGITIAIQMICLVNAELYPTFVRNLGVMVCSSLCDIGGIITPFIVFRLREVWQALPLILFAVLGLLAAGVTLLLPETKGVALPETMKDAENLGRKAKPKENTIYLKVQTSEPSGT

[3] = molecular target: T3, hOCT3 (Homo sapiens, UniProt O75751); assay: Inhibition of hOCT3-mediated substrate uptake in transfected HEK293 cells; format: in vitro ADME; details: for unbound Cmax/IC50, hOCT3: FDA criterion > 0.1
T3 sequence (O75751 1-556): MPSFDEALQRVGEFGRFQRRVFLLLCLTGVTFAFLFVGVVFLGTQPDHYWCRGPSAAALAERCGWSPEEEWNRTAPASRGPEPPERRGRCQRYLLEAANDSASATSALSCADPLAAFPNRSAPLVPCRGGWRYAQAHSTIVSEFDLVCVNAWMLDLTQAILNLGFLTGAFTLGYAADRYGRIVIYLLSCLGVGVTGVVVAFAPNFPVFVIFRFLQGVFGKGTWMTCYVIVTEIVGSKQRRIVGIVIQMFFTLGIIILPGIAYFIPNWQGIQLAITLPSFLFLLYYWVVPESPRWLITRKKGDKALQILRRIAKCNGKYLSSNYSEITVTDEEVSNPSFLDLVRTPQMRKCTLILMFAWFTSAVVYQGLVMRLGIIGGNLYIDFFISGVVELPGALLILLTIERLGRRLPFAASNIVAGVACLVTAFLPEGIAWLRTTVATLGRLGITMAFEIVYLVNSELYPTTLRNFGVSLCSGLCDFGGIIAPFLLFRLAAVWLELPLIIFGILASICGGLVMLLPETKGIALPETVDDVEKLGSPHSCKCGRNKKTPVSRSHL

[4] = molecular target: T4, hOCT2 (Homo sapiens, UniProt O15244); assay: Inhibition of hOCT2-mediated substrate uptake in transfected HEK293 cells; format: in vitro ADME; details: for Fold Difference of IC50, coincubation vs preincubation, hOCT2: [14C]metformin uptake, 30-min preincubation; for unbound Cmax/IC50, hOCT2: FDA criterion > 0.1
T4 sequence (O15244 1-555): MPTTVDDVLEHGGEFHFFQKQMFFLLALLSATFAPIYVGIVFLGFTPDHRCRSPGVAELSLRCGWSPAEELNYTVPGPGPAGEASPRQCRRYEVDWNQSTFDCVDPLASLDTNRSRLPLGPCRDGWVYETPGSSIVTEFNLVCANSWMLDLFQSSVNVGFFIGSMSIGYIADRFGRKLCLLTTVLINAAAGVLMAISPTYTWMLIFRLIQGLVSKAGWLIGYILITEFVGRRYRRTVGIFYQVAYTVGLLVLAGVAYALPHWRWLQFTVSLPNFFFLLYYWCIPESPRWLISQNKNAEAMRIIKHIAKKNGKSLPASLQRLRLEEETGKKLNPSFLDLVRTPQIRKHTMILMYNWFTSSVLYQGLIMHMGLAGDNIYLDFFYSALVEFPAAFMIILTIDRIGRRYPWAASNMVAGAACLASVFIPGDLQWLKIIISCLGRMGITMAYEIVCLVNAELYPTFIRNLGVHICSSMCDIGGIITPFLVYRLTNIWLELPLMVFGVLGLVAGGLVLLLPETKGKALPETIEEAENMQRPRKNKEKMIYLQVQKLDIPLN

[5] = molecular target: T5, hMATE2-K (Homo sapiens, UniProt Q86VL8); assay: Inhibition of hMATE2-K-mediated substrate uptake in transfected HEK293 cells (pH 8.0); details: FDA criterion > 0.1
T5 sequence (Q86VL8 1-566 isoform Q86VL8-3): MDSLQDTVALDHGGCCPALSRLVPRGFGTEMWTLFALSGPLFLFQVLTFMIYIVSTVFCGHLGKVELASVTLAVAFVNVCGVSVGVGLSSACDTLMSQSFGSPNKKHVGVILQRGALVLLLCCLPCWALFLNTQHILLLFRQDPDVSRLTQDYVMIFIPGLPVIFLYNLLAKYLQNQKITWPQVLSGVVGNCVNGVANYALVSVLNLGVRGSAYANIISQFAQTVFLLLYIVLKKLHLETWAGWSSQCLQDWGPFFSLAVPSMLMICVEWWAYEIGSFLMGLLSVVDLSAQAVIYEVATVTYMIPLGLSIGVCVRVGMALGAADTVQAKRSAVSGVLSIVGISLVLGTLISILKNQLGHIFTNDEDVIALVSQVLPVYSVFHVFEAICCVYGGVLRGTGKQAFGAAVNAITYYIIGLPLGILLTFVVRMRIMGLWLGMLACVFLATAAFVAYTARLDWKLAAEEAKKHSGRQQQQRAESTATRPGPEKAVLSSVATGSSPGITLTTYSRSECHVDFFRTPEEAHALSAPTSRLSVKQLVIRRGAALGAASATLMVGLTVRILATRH

COc1cc(N2CCC(N3CCN(C)CC3)CC2)ccc1Nc1ncc(Cl)c(Nc2ccccc2P(C)(C)=O)n1 [Brigatinib]
Fold Difference of IC50, coincubation vs preincubation, hMATE1 ([1]; [14C]metformin uptake, 30-min preincubation): 1.4
unbound Cmax/IC50, hMATE1 ([1]; substrate MPP+): 0.42
selectivity: inhibition of hMATE1 more potent than of hMATE2-K ([1]; substrate mIBG, IC50 ratio): at least 50 fold
unbound Cmax/IC50, hMATE1 ([1]; substrate mIBG): 0.44
unbound Cmax/IC50, hMATE1 ([1]; substrate metformin): 0.51
unbound Cmax/IC50, hOCT1 ([2]; substrate MPP+): 0.03
unbound Cmax/IC50, hOCT1 ([2]; substrate mIBG): 0.05
unbound Cmax/IC50, hOCT1 ([2]; substrate metformin): 0.75
unbound Cmax/IC50, hOCT3 ([3]; substrate MPP+): 0.33
selectivity: inhibition of hOCT3 more potent than of hOCT1 ([3]; substrate mIBG, IC50 ratio): 14 fold
selectivity: inhibition of hOCT3 more potent than of hOCT2 ([3]; substrate mIBG, IC50 ratio): at least 100 fold
unbound Cmax/IC50, hOCT3 ([3]; substrate mIBG): 0.70
unbound Cmax/IC50, hOCT3 ([3]; substrate metformin): 0.99
Fold Difference of IC50, coincubation vs preincubation, hOCT2 [4]: 2.3
Fold Difference of IC50, coincubation vs preincubation, hOCT2 ([4]; listed as brigatinib): around two-fold
unbound Cmax/IC50, hOCT2 ([4]; substrate MPP+): <0.002
unbound Cmax/IC50, hOCT2 ([4]; substrate mIBG): 0.005
unbound Cmax/IC50, hOCT2 ([4]; substrate metformin): 0.03
unbound Cmax/IC50, hMATE2-K ([5]; substrate MPP+): <0.002
unbound Cmax/IC50, hMATE2-K ([5]; substrate mIBG): 0.004
unbound Cmax/IC50, hMATE2-K ([5]; substrate metformin): 0.02
